How the values were obtained:
[1] = system: HEK 293T (human embryonic kidney cancer cell line); test: In vitro cytotoxicity assay (72 hour killing assay, CellTiter-Glo), HEK 293T; details: read-out: IC50 HEK 293T, 50% inhibitory concentration against cell growth
[2] = system: MES SA DX (human uterine sarcoma cell line with marked multidrug resistance); test: In vitro cytotoxicity assay (72 hour killing assay, CellTiter-Glo), MES SA DX; details: read-out: IC50 MES SA DX, 50% inhibitory concentration against cell growth, multidrug resistant line
[3] = system: MES SA (human uterine sarcoma); test: In vitro cytotoxicity assay (72 hour killing assay, CellTiter-Glo), MES SA; details: read-out: IC50 MES SA, 50% inhibitory concentration against cell growth

Measured: IC50

DC-45-A2
> 2500 nM: all assays above

From patent US20210230178A1, “TRIOXACARCIN ANALOGS AND DIMERS AS POTENT ANTICANCER AGENTS” (William Marsh Rice University, priority 2017, published 2021)
